The list shows a part of the results, in another mix than the full data. Activity calls are given as the source filed them.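 The calls were made as follows: active = compounds causing at least 50% loss of cell viability in the single-dose screen, relative to plate controls; inactive = the rest.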
Test: TRAIL-exposed caspase-8 expressing cell killing – NB7+C8 cells, ATPlite luminescence, TRAIL sensitizer project, primary screen (AID 624354)
Conditions: at 10 µM, active compounds read high

| SMILES | inhibition (viability loss, TRAIL sensitization) |
| --- | --- |
| CN(C)C(=O)c1cc([N+](=O)[O-])cc2c1-c1c(cc([N+](=O)[O-])cc1[N+](=O)[O-])C2=O | inactive: 49.8% |
| O=[N+]([O-])c1ccc2c(c1)nnn2O | inactive: -0.262% |
| CN(C(=O)Cc1ccc(Cl)c(Cl)c1)[C@H]1CC[C@@]2(CCCO2)C[C@@H]1N1CCCC1 | inactive: 1.49% |
| N#CCCN(C(=O)COC(=O)C(O)(c1ccccc1)c1ccccc1)c1ccc(F)cc1 | inactive: 1.64% |
| CCOP1(=S)c2c(C)nn(CCC#N)c2N=C(c2ccc(F)cc2)N1C (configuration not stated) | inactive: 8.14% |
| CN(C(=O)Cc1ccccc1)[C@@H]1CC[C@]2(CCCO2)C[C@H]1N1CCCC1 | inactive: -8.38% |
| COc1cc(C(=O)NCC2(N3CCOCC3)CCCCC2)cc(Cl)c1OC(C)C | inactive: -1.2% |
| O=[As](O)(O)c1cccnc1 | inactive: 4.31% |
| CS(=O)(=O)c1ccc(Cl)c(NC(=O)COC(=O)C(O)(c2ccccc2)c2ccccc2)c1 | inactive: -1.34% |
| O=C(OC1CN2CCC1CC2)c1ccc(Cl)cc1 (configuration not stated) | inactive: 0.264% |
| O=[As](O)(c1cccc(O)c1)c1cccc(O)c1 | inactive: -18% |
| Cc1cccc(OCC(=O)OC2CN3CCC2CC3)c1 (configuration not stated) | inactive: -4.78% |
| CCCOP(=S)(Nc1nc(N)cc(=O)[nH]1)OCCC | inactive: 10.3% |
| Nc1cccc2c([As](=O)(O)O)cccc12 | inactive: -24.6% |
| Cc1ccc(NCCc2c([N+](=O)[O-])cc([N+](=O)[O-])cc2[N+](=O)[O-])cc1 | inactive: 18.6% |
| COc1cc(C2NCCC3(OCCO3)C2(C)C)cc(OC)c1OC (configuration not stated) | inactive: -3.18% |
| CCOP(=O)(Nc1cccc2ccccc12)OCC | inactive: -4.33% |
| CN(CCCl)Cc1cc(Cl)c(NC2=NCCN2)c(Cl)c1 | inactive: -9.29% |
| CCOP(=O)(Nc1ccc(C)cn1)OCC | inactive: -12.1% |
| CCC1=CC2Cc3nc4ccc(Cl)cc4c(N)c3C(C1)C2 (configuration not stated) | inactive: 11% |
| O=P1(Nc2ccccn2)COc2ccccc2OC1 | inactive: -27.4% |

| SMILES | inhibition (viability loss, TRAIL sensitization) |
| --- | --- |
| CCOP(=O)(NC(=NC(C)c1ccccc1)NC(C)c1ccccc1)OCC (configuration not stated) | inactive: 7.14% |
| Clc1n[nH]nc1-c1nn[nH][15n]1 | inactive: -3.68% |
| O=P1(N(CCCl)CCCl)NCCC(C(F)(F)F)O1 (configuration not stated) | inactive: -15.1% |
| CC(C)(C)C(=O)NC(Sc1ncccn1)C(Cl)(Cl)Cl (configuration not stated) | inactive: 4.99% |
| COc1ccccc1CNC(=O)COC(=O)C(O)(c1ccccc1)c1ccccc1 | inactive: 4.91% |
| CC1(CBr)Cn2c(nc3ccccc3c2=O)S1 (configuration not stated) | inactive: 0.677% |
| CN(C(=O)Cc1ccc(Cl)c(Cl)c1)[C@@H]1CCCC[C@H]1N1CCCC1 | inactive: 3.8% |
| CC(C)/C=N\N=C(\N)N[N+](=O)[O-] | inactive: -9.1% |
| Cc1nn(-c2ccccc2)c2c1P(=O)(N1CCOCC1)N(C)C(c1ccccc1)=N2 (configuration not stated) | inactive: -2.93% |
| Cc1ccc(C(=O)OC2CN3CCC2CC3)cc1 (configuration not stated) | inactive: 6.35% |
| CC1CCC(C(C)C)C(OP(=O)(Nc2ccccn2)c2ccccc2)C1 (configuration not stated) | inactive: 5.8% |
| O=C(/C=C/c1ccccc1)OC1CN2CCC1CC2 (configuration not stated) | inactive: 33% |
| CCCC1OP(=O)(Nc2ccccc2)OCC1CC (configuration not stated) | inactive: -10.1% |
| CN(C)C1(CNC(=O)c2ccc(S(C)(=O)=O)cc2)CCCCC1 | inactive: 1.46% |
| O=P1(Nc2ncccn2)COc2ccccc2OC1 | inactive: -6.56% |
| Cc1ccc(S(=O)(=O)N(CCCN)CCCc2c(C)nc(N)[nH]c2=O)cc1 | inactive: -1.23% |
| NS(=O)(=O)c1cccc(NC(=O)COC(=O)C(O)(c2ccccc2)c2ccccc2)c1 | inactive: 12.4% |
| O=P1(Nc2ccc(Br)cn2)COc2ccccc2OC1 | inactive: -7.97% |
| O=[As](O)(c1cccs1)c1cccs1 | inactive: -7.39% |
| Cc1ccc(OCC(=O)OC2CN3CCC2CC3)cc1 (configuration not stated) | inactive: -9.71% |
| Nc1cccc([As](=O)(O)c2ccccc2)c1 | inactive: 0.173% |

— PubChem BioAssay AID624354 (Sanford-Burnham Center for Chemical Genomics, 2012)
